## Ab-14 light chain CDR variants: yeast mating affinities

From the AlphaSeq antibody data of Li et al. 2023 (doi:10.1038/s41467-023-39022-2), copy in the FLAb collection.

Binding partner: SARS-CoV-2 spike HR2 peptide, sequence PDVDLGDISGINAS.

Ab-14 is the parent antibody, in scFv form: VH, then the linker GGGGSGGGGSGGGGS, then VL. The heavy chain is unchanged in all variants.
VH: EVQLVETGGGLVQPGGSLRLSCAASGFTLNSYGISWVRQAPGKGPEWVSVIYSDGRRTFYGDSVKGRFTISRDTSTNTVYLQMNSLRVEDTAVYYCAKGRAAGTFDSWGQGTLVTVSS
VL: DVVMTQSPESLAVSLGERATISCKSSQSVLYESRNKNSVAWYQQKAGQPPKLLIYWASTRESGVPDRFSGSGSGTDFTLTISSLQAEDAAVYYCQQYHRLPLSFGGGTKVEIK

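The parent was found by panning a naive human phage display library on the peptide. The variants were designed computationally from a first round of random CDR variants and then made and measured. Their group label is 14L_GP_HC (GP: Gaussian process model; HC: hill climbing; a sequence that several methods proposed may carry one label only). The assay is AlphaSeq: two haploid yeast populations carry antibody and antigen on their surface. Mating (16 h, 30 °C) was followed by selection of diploids and sequencing of their barcodes. Each replicate has its own calibration line, from reference interactions of the BCL2 family. Each pool was mated in six replicate cultures.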

Each variant is given by its three light chain CDRs, as the data file delimits them; those of the parent are KSSQSVLYESRNKNSVA, WASTRES, QQYHRLPLS.
Scale: log10 of Kd in nM, estimated from mating counts; low values are strong binders.
A pair that was not seen in that replicate is written "n.d."; this usually means weak binding, but a binder can also be missed.
Of ten entries with the parent sequence, four were seen in most replicates (averages 0.34 to 2.37), three in one and three in none, so single entries are noisy.

CDR-L1,CDR-L2,CDR-L3,log10 Kd (nM) by replicate,control signals
KLRQSTKYESRNQNSVA,NASTRES,QQYHRLPLS,0.64 0.79 -0.06 0.81 0.90 0.80,1 of 18 (1.03)
HVSPSVEYESRNKNSVA,NASSRES,QQYHRLPLS,0.00 -0.14 -0.30 -0.23 -0.36 -0.18,0 of 18
KLAQSTKYESRNQNSVA,WASTRES,QQYHRLPLS,0.40 0.53 0.60 0.34 0.49 1.48,1 of 18 (2.76)
KLSQSFLYESRNKNSVA,GASTRES,QNYHRLTLS,n.d. n.d. n.d. n.d. n.d. n.d.,0 of 18
KSSISYLYESENKNSVA,HASQRES,QQYHRLPLS,0.25 0.15 -0.03 -0.12 0.12 0.31,2 of 18 (3.30)
KFSQWVLYESRQKNSVA,NASTRES,QQYHRLPLS,-0.24 -0.75 -0.64 -0.61 -0.53 -0.15,0 of 18
KASQSWLYESRNFWSVA,GASTRES,QQYHRLPLS,0.23 0.10 0.00 -0.07 0.01 0.22,1 of 18 (2.72)
KSGQGVLYESRNFNSVA,GASTRES,QQYHRLPLS,0.46 0.42 0.51 0.45 0.46 0.69,0 of 18
KQSQSVLMESRNWNSVA,DASTRES,QQYVRLPLS,-0.24 0.26 -0.51 -0.03 -0.16 0.05,0 of 18
HSSASVLYESRNKNNVA,NASTRES,QQYHRLPLS,-0.08 -0.19 -0.21 -0.26 -0.20 0.14,0 of 18
KHSQSVLYESRNKNSVA,DASTRSS,QQYHRLPLS,0.15 -0.22 0.01 -0.23 -0.17 0.38,1 of 18 (1.93)
KLGQGVLYESRNKNSVA,GASQRWS,QQYHRLPLS,0.37 0.23 0.04 0.00 -0.06 0.34,4 of 18 (3.22)
KSSMSFLYESRNKNSVA,DASTRES,QQYHRLPLS,-0.05 -0.34 -0.07 -0.22 -0.40 -0.12,2 of 18 (3.11)
KFSQSVAYESRQKNSVA,NASTRES,QQYHRLPLS,0.30 -0.05 0.12 0.08 0.07 0.16,1 of 18 (4.60)
ILSQSVLMESRNKNSVA,DASTRES,QQYHRLPLS,-0.04 -0.03 0.04 -0.47 0.05 0.29,1 of 18 (2.86)
KLQQQQLYESRNKNSVA,SASTREE,QQYHRLPLS,-0.17 -0.15 -0.29 -0.32 -0.28 -0.23,0 of 18
KSSQSHLYESRNKNSVA,DASTRES,QQYHRLPLS,2.43 n.d. 3.70 n.d. 2.62 2.03,0 of 18
KSSISGLYESRNKNSVA,AASTREL,QQYHRLPLS,0.50 0.21 0.32 0.45 0.26 0.58,1 of 18 (2.23)
KVLQSWLYESRNKNSVA,HASTREQ,QQYHRLPLS,0.58 0.33 0.59 0.12 0.39 0.49,2 of 18 (3.84)
KISQSFLYESRNKNSVA,DANTRES,QQYHRLPLS,0.47 0.17 0.19 0.07 0.55 0.16,3 of 18 (2.32)
KFSQWVLYESRLKNSVA,NASTRES,QQYHRLPLS,0.70 0.61 0.36 0.40 0.27 0.51,0 of 18
KVSQEQLYESRNKNSVA,DASTRES,QQYHRLPLS,-0.40 -0.49 -0.58 -0.66 -0.70 -0.32,0 of 18
KVSQAFLYESRNKNSVA,DANTRES,QQYHRLPLS,0.09 -0.35 -0.41 -0.36 -0.40 -0.07,0 of 18
KSSMSVLYESRNKNSVA,DASTRES,QQYHRLPLS,0.26 0.25 0.03 0.11 0.26 0.28,0 of 18
KSSQSVKFESRNKNSVA,DASTREQ,QQYHRLPLS,0.38 0.20 0.23 0.02 0.38 0.27,2 of 18 (3.00)
KSSISYLYESENKNSVA,EASTRES,QQYHRLPLS,-0.02 -0.07 0.20 -0.15 -0.28 0.02,2 of 18 (2.78)
KSSWSELFESRNKNSVA,DASTRSS,QQYHRLPLS,1.75 1.79 1.42 1.82 3.07 1.49,0 of 18
KLQQSTLYESRNKNSVA,QASTRES,QQYHRLPLS,-0.01 -0.21 0.10 -0.08 -0.14 0.10,0 of 18
KSSISYLMESRNKNSVA,EASTRES,QQYHRLPLS,0.39 0.38 0.16 -0.07 -0.07 0.05,0 of 18
KVSQSFLYESRNKNSVA,GASTRES,QNYHRLPLS,0.40 0.51 0.36 -0.07 -0.05 0.28,1 of 18 (3.04)
KSSQGVDYESRNKNSVA,GASTRES,QQYHRLPLS,0.78 0.41 0.26 0.27 0.34 0.59,2 of 18 (2.58)
KSQQSVLYESRNKNNVA,QASTRED,QQYARLPLS,-0.25 -0.29 -0.39 -0.32 -0.33 -0.31,0 of 18
KSSQSELYESRNKNSVA,GASSRES,QQYHRLPLS,1.20 1.33 1.38 0.96 1.11 1.35,0 of 18
HSSPSVRYESRNKNSVA,NASTREE,QQYHRLPLS,n.d. n.d. n.d. n.d. n.d. n.d.,0 of 18
KISQGALYESRNKNSVA,GASTRES,QQYHRLPLS,-0.06 -0.06 -0.20 -0.29 -0.37 -0.17,3 of 18 (3.78)
KTPQGVLYESRNKNSVA,EASVRES,QQYHRLPLS,-0.05 -0.06 -0.42 -0.16 -0.19 0.15,1 of 18 (1.28)
KLSWGVLYESRNKNSVA,GASTRES,QQYHRLPLS,0.69 0.71 0.79 0.66 0.90 0.81,1 of 18 (2.97)
KSSWSVLYESGNKNSVA,DASTRES,QQYHRLPLS,0.17 0.41 0.19 0.16 0.37 0.47,1 of 18 (2.35)
HLSGSVLYESRNKNSVA,NASTRES,QQYHRLPLN,0.74 0.66 0.34 0.74 0.89 0.61,0 of 18
KLSQSVKMMSRNKNSVA,DASTRES,QQYHRLPLS,0.25 -0.01 -0.06 -0.19 0.11 0.05,0 of 18
KHYPSYLYESRNKNSVA,QASTRES,QQYHRLPLS,0.56 0.14 0.44 0.39 0.53 0.65,1 of 18 (2.35)
KSSQSVAMESRNKNSVA,DASTRES,QQYHRLPLS,-0.11 0.20 -0.35 -0.46 -0.18 -0.20,1 of 18 (2.46)
KVQQSVLYESRNKNNVA,HASTRED,QQYHRLPLS,-0.30 -0.32 -0.45 -0.46 -0.36 -0.24,0 of 18
KSLQSGLYESRNKNNVA,HASTRED,QQYARLPLS,-0.41 -0.44 -0.38 -0.63 -0.63 -0.29,3 of 18 (3.15)
KLSQQTLYESRNKNSVA,WASTREE,QQYHRLPLS,0.38 0.43 0.19 0.00 0.07 0.01,1 of 18 (1.87)
KSSISYLHESRNKNSVA,EASTRES,QQYHRLPLS,-0.04 -0.07 -0.17 -0.23 -0.04 -0.02,0 of 18
IMSQSVLMESRNKNSVA,DASTRES,QQYHRLPLS,0.12 -0.10 -0.07 -0.27 0.00 0.02,1 of 18 (2.20)
KVSFSELLESRNKNSVA,EASTRES,QQYHRLPLS,-0.19 -0.14 -0.25 -0.42 -0.32 -0.13,2 of 18 (3.05)

In the paper, a design with two or fewer of six values counts as a poor binder.
Values of this round are not directly comparable with the first-round values of the same sequences.
As a blank, each scFv also met three strains without target: over all light chain designs, 4% of these pairings were detected, typically at 2.64 and seldom below 1.59. Also given: how often the same scFv was detected with the empty control strains, with their mean in brackets.